In the experiment the target is protein ABL1 (Homo sapiens, UniProt P00519). Nature of the experiment: Activity (binding force, IC50) of compounds against protein ABL1. The following applies: read-out: binding force, IC50 (50% inhibitory concentration); protein ABL1 (kinase).

The chains behind the UniProt entries cited, without tags or fusion partners.
UniProt P00519, whole entry: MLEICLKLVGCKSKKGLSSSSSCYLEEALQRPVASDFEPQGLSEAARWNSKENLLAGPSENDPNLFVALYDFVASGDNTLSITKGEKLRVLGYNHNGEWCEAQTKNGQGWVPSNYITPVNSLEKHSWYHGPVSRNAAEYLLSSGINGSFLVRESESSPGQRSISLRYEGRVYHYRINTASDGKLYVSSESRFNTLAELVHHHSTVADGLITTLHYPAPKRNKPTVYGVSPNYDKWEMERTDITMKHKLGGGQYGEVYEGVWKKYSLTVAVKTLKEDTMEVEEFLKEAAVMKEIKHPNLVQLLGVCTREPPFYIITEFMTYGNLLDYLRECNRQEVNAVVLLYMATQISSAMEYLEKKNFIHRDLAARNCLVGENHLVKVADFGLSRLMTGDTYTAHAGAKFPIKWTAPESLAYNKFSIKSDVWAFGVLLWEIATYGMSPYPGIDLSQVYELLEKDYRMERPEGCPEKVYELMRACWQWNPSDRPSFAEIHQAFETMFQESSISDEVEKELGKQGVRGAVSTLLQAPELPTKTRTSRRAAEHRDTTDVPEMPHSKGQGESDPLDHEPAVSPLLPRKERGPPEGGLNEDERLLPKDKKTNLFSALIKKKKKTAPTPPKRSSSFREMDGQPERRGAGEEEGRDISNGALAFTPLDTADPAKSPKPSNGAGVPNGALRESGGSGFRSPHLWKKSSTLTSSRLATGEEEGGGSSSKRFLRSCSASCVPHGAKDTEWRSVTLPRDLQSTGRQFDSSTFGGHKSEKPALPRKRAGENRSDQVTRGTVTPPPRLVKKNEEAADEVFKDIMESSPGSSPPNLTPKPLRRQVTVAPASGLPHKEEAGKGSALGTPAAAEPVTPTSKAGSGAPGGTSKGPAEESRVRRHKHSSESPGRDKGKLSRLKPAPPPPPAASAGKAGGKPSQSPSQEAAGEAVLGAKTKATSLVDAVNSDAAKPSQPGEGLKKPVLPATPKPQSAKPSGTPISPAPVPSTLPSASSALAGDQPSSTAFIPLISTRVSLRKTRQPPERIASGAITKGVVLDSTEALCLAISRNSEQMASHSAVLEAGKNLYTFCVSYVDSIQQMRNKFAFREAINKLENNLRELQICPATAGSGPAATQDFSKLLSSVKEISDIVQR

Consider `COc1ccccc1Oc1ccc2[nH]nc(-c3nc4ccc(N5CCC(N6CCCCC6)CC5)cc4[nH]3)c2c1`, for which the IC50 turned out to be 1000 nM.

Values taken from patent US12249406B2.
